Source: US7338959B2, “Diamino-pyrimidines and their use as angiogenesis inhibitors” (SmithKline Beecham Corporation, priority 2002, dated 2008)

Sequences of proteins named here, by UniProt entry; tags and fusion partners are left off. Residues count along the entry.
UniProt Q02763, 23-1124 limits assumed: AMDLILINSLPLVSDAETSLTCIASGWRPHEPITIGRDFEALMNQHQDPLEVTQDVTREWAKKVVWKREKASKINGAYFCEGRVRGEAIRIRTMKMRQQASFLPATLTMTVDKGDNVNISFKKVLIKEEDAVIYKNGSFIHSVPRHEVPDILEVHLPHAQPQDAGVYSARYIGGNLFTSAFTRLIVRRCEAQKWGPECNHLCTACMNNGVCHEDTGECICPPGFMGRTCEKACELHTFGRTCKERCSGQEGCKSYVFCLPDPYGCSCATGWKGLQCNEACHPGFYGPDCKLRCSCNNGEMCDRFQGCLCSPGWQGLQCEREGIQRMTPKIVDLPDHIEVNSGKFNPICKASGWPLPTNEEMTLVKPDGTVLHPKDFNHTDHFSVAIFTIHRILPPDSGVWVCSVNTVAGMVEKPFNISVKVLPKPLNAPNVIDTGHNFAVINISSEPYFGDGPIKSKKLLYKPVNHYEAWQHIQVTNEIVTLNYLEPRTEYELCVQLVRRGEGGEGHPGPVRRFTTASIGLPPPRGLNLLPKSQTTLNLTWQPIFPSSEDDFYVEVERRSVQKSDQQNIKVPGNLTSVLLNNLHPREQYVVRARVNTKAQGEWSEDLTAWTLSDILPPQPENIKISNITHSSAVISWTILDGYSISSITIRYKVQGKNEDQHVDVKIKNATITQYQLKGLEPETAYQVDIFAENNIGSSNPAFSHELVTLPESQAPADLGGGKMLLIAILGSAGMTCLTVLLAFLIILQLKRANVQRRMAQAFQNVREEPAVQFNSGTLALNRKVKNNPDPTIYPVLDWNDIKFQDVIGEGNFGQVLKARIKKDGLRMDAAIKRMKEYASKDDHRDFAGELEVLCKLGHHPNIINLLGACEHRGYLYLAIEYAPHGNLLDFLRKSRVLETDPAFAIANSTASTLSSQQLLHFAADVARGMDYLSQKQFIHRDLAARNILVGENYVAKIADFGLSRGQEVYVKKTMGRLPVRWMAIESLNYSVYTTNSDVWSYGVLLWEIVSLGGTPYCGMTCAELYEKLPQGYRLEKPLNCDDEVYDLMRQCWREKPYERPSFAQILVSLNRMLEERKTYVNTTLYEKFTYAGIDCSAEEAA
UniProt P35968, 786-1356 limits assumed: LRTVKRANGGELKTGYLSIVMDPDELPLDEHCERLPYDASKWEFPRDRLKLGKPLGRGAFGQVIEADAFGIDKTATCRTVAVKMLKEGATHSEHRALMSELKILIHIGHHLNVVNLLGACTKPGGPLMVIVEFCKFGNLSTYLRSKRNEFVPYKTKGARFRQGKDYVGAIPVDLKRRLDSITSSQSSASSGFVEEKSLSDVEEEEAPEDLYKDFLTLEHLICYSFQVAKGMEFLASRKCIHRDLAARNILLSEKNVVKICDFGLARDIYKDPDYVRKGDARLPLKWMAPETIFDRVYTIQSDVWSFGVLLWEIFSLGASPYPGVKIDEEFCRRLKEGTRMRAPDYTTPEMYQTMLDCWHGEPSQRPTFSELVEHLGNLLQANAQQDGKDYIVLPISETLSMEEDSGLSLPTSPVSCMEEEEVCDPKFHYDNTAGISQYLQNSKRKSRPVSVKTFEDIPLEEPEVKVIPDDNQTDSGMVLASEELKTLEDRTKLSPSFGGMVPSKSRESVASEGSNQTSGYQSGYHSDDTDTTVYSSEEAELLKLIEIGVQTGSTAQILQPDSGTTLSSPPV

Experiments:
Recombinant GST-Tie2 = Recombinant GST-Tie2 (Homo sapiens, UniProt Q02763); assay: Tie2 fluorescence polarization kinase activity assay (TIE2-FP); details: activated Tie2, 200 μM ATP, peptide substrate; tested form: HCl
Method: Tie2 Fluorescence Polarization Kinase Activity Assay: (TIE2-FP)
Activation of Recombinant Tie2 Activation:
Recombinant GST-Tie2 was activated by incubating the enzyme in 20 mM Tris-HCl, pH 7.5, 12 mM MgCl2, 100 mM NaCl, 20 μM sodium vanidate, 1 mM DTT and 300 μM ATP at room temperature for 2 hours. The activation mixture was then passed through a NAP-25 desalting column (Pharmacia Biotech cat. no. 17-0852-02) to remove the free ATP. The activated enzyme was stored as aliquots at −80° C. in 20 mM Tris-HCl, pH 7.5 and 100 mM NaCl.
The final assay conditions were 50 mM HEPES, pH 7.5, 5% DMSO (when screening compounds), 200 μM ATP, 5 mM MgCl2, 1 mM DTT, 50 μM sodium vanidate, 1 nM activated enzyme, and 200 μM peptide. IC50's of compounds were measured under subsaturating ATP (200 μM) and varing concentrations of activated Tie2 and peptide substrate (RFWKYEFWR-OH; MW 1873 Da, TFA salt). Panvera Anti-phosphotyrosine antibody (Cat#P2840) and PTK Green Tracer (Cat#P2842) were used to detect the phosphorylated peptide. Polarization was measured on a TECAN Polarion in 138-second cycles for 30 minutes at room temperature. IC50's were then determined from the % polarization using normal calculation methods.

GST-VEGFR2 = GST-VEGFR2 (Homo sapiens, UniProt P35968); assay: VEGF-R2 enzyme assay (VEGF-E), LANCE method; details: GST-VEGFR2, 75 uM ATP, biotinylated peptide; tested form: HCl
Text: VEGF-R2 Enzyme Assay (VEGF-E)
The VEGF enzyme assay used the LANCE method (Wallac) and GST-VEGFR2, baculovirus expressed recombinant constructs of the intracellular domains of human TIE2 tagged by GST. The method measured the ability of the purified enzymes to catalyse the transfer of the γ-phosphate from ATP onto tyrosine residues in a biotinylated synthetic peptide, (biotin-aminohexyl-EEEEYFELVAKKKK-NH2). This peptide phosphorylation was detected using the following procedure: GST-VEGFR2 was incubated for 40-60 mins at room temperature with 75 uM ATP, 5 mM MgCl2, 0.1 mM DTT, 0.1 mg/mL BSA and the test compound (diluted from a 10 mM stock in DMSO for desired concentration) in 100 mM HEPES buffer. The reaction was stopped by the addition of EDTA (final concentration 50 mM). Streptavidin linked-APC (allophycocyanin, Molecular Probe) and Europium-labeled anti-phosphorylated tyrosine antibody (Wallac) were then added at the final concentration of 15 nM and 1 nM, respectively. The APC signal was measured using an ARVO multilabel counter (Wallac Berthold, Japan). The percent inhibition of activity was calculated relative to blank control wells. The concentration of test compound that inhibits 50% of activity (IC50) was interpolated using nonlinear regression (Levernberg-Marquardt) and the equation, y=Vmax (1−x/(K+x))+Y2, where “K” was equal to the IC50. […]

Question: What does the source list for `CN(c1ccc2c(c1)nc(Nc1ccc(N3CCOCC3)cc1)n2C)c1ccnc(Nc2ccc(CS(C)(=O)=O)cc2)n1`?
Answer: TIE2-FP (Recombinant GST-Tie2): + (+ = pIC50 of 5.0-6.0); VEGF-E (GST-VEGFR2): +++ (+++ = pIC50 of >7.0)
